Earlier results in patent publication US20110112099A1, “THERAPEUTIC AGENT FOR CANCER RESISTANT TO PROTEASE INHIBITOR” (KYOWA HAKKO KIRIN CO., LTD., priority 2007, published 2011).

Test system: breast cancer expressing Her2
Conditions: clinical; cited from earlier work

trastuzumab
Share of patients in whom a single medication is effective: 30-40%
